Literature values in patent US6320024A, “Method for design of substances that enhance memory and improve the quality of life” (priority 1999, dated 2001).

System: CD-1 male mice
Settings: post-training ICV in mice; references 1 and 12; cited from earlier work

| Substance | amnestic effect on retention of FAAT (literature) |
| --- | --- |
| Val His His Gln Lys Leu Val Phe Phe (VHHQKLVFF) [β-(12-20)] | amnestic |
| Val His His Gln Lys Leu Val Phe Phe Ala Glu Asp Val Gly Ser Asn Lys (VHHQKLVFFAEDVGSNK) [β-(12-28)] | amnestic |
